Experimental findings from BindingDB's records for doi:10.1016/j.vascn.2014.07.002 (University of Oxford, 2014) are described below.

Amino acid sequences for entries named in this document (tags omitted). A change or cut given only in a name is not applied to a line headed by its entry.
UniProt Q12809: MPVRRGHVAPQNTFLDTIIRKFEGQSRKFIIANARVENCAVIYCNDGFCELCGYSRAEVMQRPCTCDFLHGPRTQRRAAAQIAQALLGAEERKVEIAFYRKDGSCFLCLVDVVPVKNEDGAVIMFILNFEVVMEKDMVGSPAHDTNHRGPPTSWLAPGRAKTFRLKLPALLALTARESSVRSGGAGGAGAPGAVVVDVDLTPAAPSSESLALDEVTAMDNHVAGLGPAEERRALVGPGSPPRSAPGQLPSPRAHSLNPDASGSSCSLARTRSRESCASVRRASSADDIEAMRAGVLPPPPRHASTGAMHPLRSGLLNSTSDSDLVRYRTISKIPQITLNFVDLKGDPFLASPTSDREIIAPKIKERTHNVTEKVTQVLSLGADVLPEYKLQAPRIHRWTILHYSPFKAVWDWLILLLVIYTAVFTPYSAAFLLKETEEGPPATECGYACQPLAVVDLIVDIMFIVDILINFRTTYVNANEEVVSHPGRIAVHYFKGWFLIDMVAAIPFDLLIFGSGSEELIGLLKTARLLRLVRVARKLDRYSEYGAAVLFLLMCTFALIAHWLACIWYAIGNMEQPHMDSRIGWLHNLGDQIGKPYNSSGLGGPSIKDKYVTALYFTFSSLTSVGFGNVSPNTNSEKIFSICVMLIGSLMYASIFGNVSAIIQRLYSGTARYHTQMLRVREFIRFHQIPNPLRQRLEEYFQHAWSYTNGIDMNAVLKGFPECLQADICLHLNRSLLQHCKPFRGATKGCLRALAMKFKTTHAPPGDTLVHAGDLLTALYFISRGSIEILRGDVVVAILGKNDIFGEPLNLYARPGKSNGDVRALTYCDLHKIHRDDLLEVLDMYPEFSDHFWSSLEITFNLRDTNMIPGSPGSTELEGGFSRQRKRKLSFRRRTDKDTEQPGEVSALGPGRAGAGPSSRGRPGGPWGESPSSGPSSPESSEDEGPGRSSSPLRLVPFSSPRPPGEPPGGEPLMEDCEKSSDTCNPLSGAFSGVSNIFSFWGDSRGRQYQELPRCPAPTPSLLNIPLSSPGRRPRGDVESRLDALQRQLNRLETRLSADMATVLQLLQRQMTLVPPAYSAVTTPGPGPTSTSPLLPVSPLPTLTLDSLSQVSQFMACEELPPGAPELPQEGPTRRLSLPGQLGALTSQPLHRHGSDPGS

The target of this series is Potassium voltage-gated channel subfamily H member 2 (Homo sapiens, UniProt Q12809). The series is described as follows: Inhibition of rapid delayed inward rectifying potassium current (IKr) measured using manual patch clamp assay. (In general: In patch-clamp work, channel activity is measured electrically.)

`C[C@@H](O)[C@H]1C(=O)N2C(C(=O)O)=C(S[C@@H]3CN[C@H](CNS(N)(=O)=O)C3)[C@H](C)[C@H]12` [Doribax] yielded a concentration for half-maximal inhibition (IC50) of 5.01 mM.

A word on the IC50: it is the concentration at which inhibition is half-maximal. A higher IC50 goes with a need for much substance.
